{"source": "patent US11419870B2", "about": "“Intermittent dosing of MDM2 inhibitor” (Novartis AG, priority 2014, dated 2022)", "experiment": "Tolerability in SJSA-1 tumor-bearing nude rat (body weight, survival)", "assay_type": "in vivo", "details": "for change in BW: 3 days post treatment", "procedure": "Subcutaneous tumors were induced by concentrating 1.0×10^7 SJSA-1 cells in 50% Matrigel® and injecting in the right flank of Harlan nude rats. Efficacy experiment could start 14 days post cell injection. Compound A was made-up fresh for each administration. For i.v. injection (4 ml/kg), Compound A was dissolved in 30% PEG300, 10% Solutol HS 15, 6% Pluronic F68 and 54% water. For per os (p.o.) injection (5 ml/kg), Compound A was dissolved in methylcellulose 0.5% w/V in phosphate buffer pH 6.8 50 mM. The animals were treated either at a high dose (20 mg/kg i.v. or 27 mg/kg p.o.) once every 3 weeks (q3w) or at a high dose (15 mg/kg p.o.) followed 24 h later by a daily low dose treatment (3 mg/kg p.o., 2 weeks on/2 weeks off).\n[formula] Similarly, the body-weight (BW) of the animal was measured three times per week allowing calculation at any particular time-point relative to the day of initiation of treatment (day 0) of the percentage change in BW (Δ % BW)."}
{"compound": "COc1ncc(-c2nc3c(n2C(C)C)[C@H](c2ccc(Cl)cc2)N(c2cc(Cl)cn(C)c2=O)C3=O)c(OC)n1", "note": "[Compound A, (S)-5-(5-Chloro-1-methyl-2-oxo-1,2-dihydro-pyridin-3-yl)-6-(4-chloro-phenyl)-2-(2,4-dimethoxy-pyrimidin-5-yl)-1-isopropyl-5,6-dihydro-1H-pyrrolo[3,4-d]imidazol-4-one]", "values": [{"measurement": "Survival", "setting": "i.v. q3w 13.7 mg/kg, week 1 post treatment", "value": "6/6"}, {"measurement": "Survival", "setting": "i.v. q3w 13.7 mg/kg, week 2 post treatment", "value": "6/6"}, {"measurement": "Survival", "setting": "i.v. q3w 18.2 mg/kg, week 1 post treatment", "value": "5/5"}, {"measurement": "Survival", "setting": "i.v. q3w 18.2 mg/kg, week 2 post treatment", "value": "5/5"}, {"measurement": "Survival", "setting": "i.v. q3w 18.2 mg/kg, week 3 post treatment", "value": "5/5"}, {"measurement": "Survival", "setting": "i.v. q3w 18.2 mg/kg, week 5 post treatment", "value": "5/5"}, {"measurement": "Survival", "setting": "i.v. q3w 18.2 mg/kg, week 6 post treatment", "value": "5/5"}, {"measurement": "animals that survived the 2 full cycles", "setting": "i.v. q3w 20 mg/kg", "value": "2/7"}, {"measurement": "change in BW", "setting": "i.v. q3w 13.7 and 18.2 mg/kg", "value": "slight loss in BW"}, {"measurement": "change in bodyweight (BW)", "setting": "p.o. q3w 20 and 27 mg/kg, 3 days post each treatment", "value": "slight decrease in bodyweight"}, {"measurement": "change in BW", "setting": "single i.v. 20 mg/kg, all others rats", "value": "slight decrease in BW"}]}
